Data as given in patent publication US5654308A (priority 1990, dated 1997).

Biological target: acetylcholine esterase (Mus musculus, UniProt P21836)
Conditions: read-out: AChE inhibiting activity IC50; mouse brain homogenate; acetylthiocholine substrate, DTNB, 412 nm

SMILES | IC50 [nM]
O=C1Oc2cccnc2CN1CCC1CCN(Cc2ccccc2)CC1 | 3.92
Cc1ccc2c(n1)CN(CCC1CCN(Cc3ccccc3)CC1)C(=O)O2 | 0.79
Cc1ccc2c(n1)CN(CCC1CCN(Cc3ccncc3)CC1)C(=O)O2 | 10.4
Cc1ccc2c(n1)CN(C1CCN(Cc3ccccc3)CC1)C(=O)O2 | 56000
